# Results: the SangsterLogP compilation
row,Structure (SMILES),logP
1,COc1ccc([N+](=O)[O-])cc1,1.97
2,O=C(OCc1ccccc1)c1ccccc1,3.9
3,COc1cc(OC)nc(NC(=O)NS(=O)(=O)c2ncccc2C(=O)N(C)C)n1,0.64
